Results as given in patent US9512125B2, “Substituted pyrazolo[3.4-D] pyrimidines as anti-inflammatory agents” (THE REGENTS OF THE UNIVERSITY OF CALIFORNIA, priority 2004, dated 2016).

Tested on: HUVEC with or without PBMC (3C, 4H, SAG and LPS systems)
Experiment: BioMAP inflammation model systems (3C, 4H, SAG, LPS), cell-based ELISA profiling

Cc1ccc(-c2nn(C(C)(C)C)c3ncnc(N)c23)cc1 [Compound 13, PP1, reference compound]
Activity: active
